{
  "sequences": {"note": "By UniProt entry, the sequences of proteins in these tests, tags left out.", "UniProt Q16539, whole entry": "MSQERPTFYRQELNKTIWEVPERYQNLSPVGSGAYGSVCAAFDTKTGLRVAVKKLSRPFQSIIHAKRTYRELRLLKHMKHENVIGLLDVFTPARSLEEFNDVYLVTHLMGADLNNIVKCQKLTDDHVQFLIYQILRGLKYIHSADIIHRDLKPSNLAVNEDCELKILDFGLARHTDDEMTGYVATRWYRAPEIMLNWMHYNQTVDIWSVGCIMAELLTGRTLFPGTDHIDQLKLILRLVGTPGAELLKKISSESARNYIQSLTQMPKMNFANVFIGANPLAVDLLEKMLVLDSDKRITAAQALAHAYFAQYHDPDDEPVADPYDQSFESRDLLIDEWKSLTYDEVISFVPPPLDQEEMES"},
  "source": "patent US8299074B2",
  "about": "“P38 MAP kinase inhibitors” (RespiVert Ltd., priority 2008, dated 2012)",
  "molecular_target": "T1, p38 MAPK alpha (MAPK14) (Homo sapiens, UniProt Q16539)",
  "T1 construct": "purchased Invitrogen",
  "assay": "Enzyme inhibition assay, p38 MAPK alpha (FRET, Z-LYTE, via MAPKAP-K2)",
  "assay_type": "biochemical",
  "conditions": "Table 2; read-out: Enzyme p38α IC50",
  "data": [
    {"smiles": "Cc1ccc(-n2nc(C(C)(C)C)cc2NC(=O)Nc2ccc(Oc3ccnc(NC(=O)C4CCOCC4)c3)c3ccccc23)cc1", "note": "[Example 2, N-(4-(4-(3-(3-tert-Butyl-1-p-tolyl-1H-pyrazol-5-yl)ureido)naphthalen-1-yloxy)pyridin-2-yl)tetrahydro-2H-pyran-4-carboxamide]", "values": [
      {"measurement": "IC50", "result": "< 10", "unit": "nM"}
    ]},
    {"smiles": "CSCC(=O)Nc1cc(Oc2ccc(NC(=O)Nc3cc(C(C)(C)C)nn3-c3ccc(C)cc3)c3ccccc23)ccn1", "note": "[Example 3, N-(4-(4-(3-(3-tert-Butyl-1-p-tolyl-1H-pyrazol-5-yl)ureido)naphthalen-1-yloxy)pyridin-2-yl)-2-(methylthio)acetamide]", "values": [
      {"measurement": "IC50", "result": "< 10", "unit": "nM"}
    ]},
    {"smiles": "COCCC(=O)Nc1cc(Oc2ccc(NC(=O)Nc3cc(C(C)(C)C)nn3-c3ccc(C)cc3)c3ccccc23)ccn1", "note": "[Example 4, N-(4-(4-(3-(3-tert-Butyl-1-p-tolyl-1H-pyrazol-5-yl)ureido)naphthalen-1-yloxy)pyridin-2-yl)-3-methoxypropanamide]", "values": [
      {"measurement": "IC50", "result": "< 10", "unit": "nM"}
    ]}
  ]
}
